From patent publication US9688708B2, “Photolabile compounds” (The Trustees of Columbia University In The City of New York, priority 2003, dated 2017)

Tests used:
[1] = system: Retzius (Rz) cells in the ganglion; test: Intracellular voltage recording of leech ganglion neuron with Xe flash irradiation; settings: during the experiments
Description: Hirudo medicinalis has a central nerve cord with several ganglia, each one containing about 400 neurons arranged in a known pattern. (W.-R. Schlue et al., 1980, J. Exp. Biol., 82:23-34). An entire ganglion was mounted on a dish. The transmembrane potential for a single cell (a neuron) in the ganglion was recorded by inserting inside the neuron a glass micropipet with a micrometer-sized end, filled with saturated aqueous KCl that acts as a luggin bridge for an Ag/AgCl electrode. Another Ag/AgCl electrode was used as a reference. The signal was taken with an AM-System 1600 amplifier, and the entire setup was covered with a Faraday cage. A 12 bit A/D acquisition card was used to digitize the data using an ad-hoc program written in QuickBasic.
Low Ca^2+-high Mg^2+ saline solution (NaCl, 102 mM; KCl, 4 mM; CaCl2: 1 mM; and MgCl2: 10 mM; Tris base, pH 5.4 adjusted to 7.4) was perfused through the dish. […] A pulsed Xe lamp located under the dish was used to irradiate the solution. UV light was removed using a band-pass filter at 500 nm.
After impaling the cell with an electrode, many experiments were performed on the same cell to ensure reproducibility. […] 300 seconds later, at 5500 s, a light flash was directed to the ganglion.

Substance: [Ru(bpy)2(4AP)2]Cl2
- toxicity on the neuron [1]: Neither toxicity nor a deleterious effect was observed
- stability in the dark (in the dark): stable in the dark
- solubility in water (water): very soluble
